GIV-Gai inh: blocks GIV peptide binding to rat Galpha-i3. P08753. Galpha-i3/FITC-GIV peptide fluorescence polarization, 90 min; stronger effect = lower value; scaled: aluminum fluoride 0%, vehicle 100%. percent of control (FP), % (test concentration not listed). 0.42% of 210,000 active. AID 1224905;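 active = replicate mean at 85% of control or lower, very high polarization wells dropped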;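 also: wells of about 15 µL received 100 nL stock; the first replicate is given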
HCMV UL50-53 inh: inhibitors of HCMV UL50-UL53 nuclear egress complex interaction; HTRF UL50-UL53 interaction, normalized percent inhibition; hit rate 0.15% among 190,000; inhibition, % (no concentration beside the values); in the data active = inhibition above about 27%, passing the limit was not always enough
GIV Gai FP conf: GIV-Galpha-i3 inhibition, FP confirmation | shares compounds with GIV-Gai inh | FITC-GIV peptide binding to Galphai3, fluorescence polarization; active compounds read low | fluorescence polarization, mP at 100 µM | hit rate 38% among 580 | AID 1259350;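 active = inhibition score of 15 or more, meaning 100 minus mean polarization as percent of control over three replicates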;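 note: lower mP means peptide displaced from Galphai3 so more inhibition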
GIV-Gai AS conf: confirmation of inhibitors of GIV binding to human Galpha-i3. hit rate 39% among 580. AlphaScreen Galphai3-GIV binding, purified proteins, 90 min; active compounds read low. AID 1259351. shares compounds with GIV-Gai inh. AlphaScreen counts at 100 µM;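 active = inhibition score at or above a set limit, where the score is 100 minus the three-replicate mean percent of control signal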
Numbers stand for hits; – = inactive; · = no result given. Rows were chosen to be rich in hits. Some 0.43% of all compounds tested hit in one or more screens of this group.

SMILES | GIV-Gai inh | HCMV UL50-53 inh | GIV Gai FP conf | GIV-Gai AS conf
Cc1cc2c3c(c(Br)cc(S(=O)(=O)O)c3n1)C(=O)c1ccccc1-2 | 83 | · | 25 | 2617
Cc1cc2c3c(c(N)cc(S(=O)(=O)O)c3n1)C(=O)c1ccccc1-2 | – | · | · | ·
OCC1O[C@H]([S-])[C@@H](O)C(O)[C@@H]1O.[Au+] (some centres not stated) | 65 | – | 57 | 6583
OCC1O[C@H](O)C(Cl)C(O)C1O (some centres not stated) | – | – | · | ·
Cc1ccc(-c2nn(-c3ccccc3Cl)cc2C(=O)Oc2ccc(-c3nnco3)cc2)cc1 | · | – | · | ·
CN1CCN(CCNC(=O)CN2C(=O)C3CCCCN3c3ccc(C(=O)N(C)C)cc32)CC1 (configuration not stated) | – | – | · | ·
O=C(O)COCC(=O)Nc1cccc(C(=O)O)c1 | – | – | · | ·
N#Cc1c(/N=C/c2ccccc2)oc(-c2ccccc2)c1-c1ccccc1 | – | · | · | ·
N#Cc1c(/N=C/c2ccc(Cl)c(Cl)c2)oc(-c2ccccc2)c1-c1ccccc1 | 73 | · | 12 | –
CN(CC(=O)NCCN1CCc2ccccc2C1)S(=O)(=O)c1cc2c(cc1Cl)NC(=O)CO2 | – | · | · | ·
O=C(NC1CCN(Cc2ccccc2)CC1)C1CCN(c2cnccn2)CC1 | 67 | – | – | –
O=C(NCCc1ccccc1)C1CCN(c2cnccn2)CC1 | – | – | · | ·
COc1ccc(OC)c(N/C=C(\C#N)c2nc(-c3cc4cc(Br)ccc4oc3=O)cs2)c1 | – | – | · | ·
Nc1cccc2c1C(=O)N(CCO)C2=O | 75 | – | 55 | –
Nc1cccc2c1C(=O)N(CC(=O)N1CCc3ccccc31)C2=O | · | – | · | ·
CCOC(=O)c1c(NC(=O)c2cc3ccccc3c(=O)o2)sc2c1CCCCCC2 | – | · | · | ·
O=C(NCc1ccc2c(c1)OCO2)C(=S)N1CCCCC1 | – | – | · | ·
O=C(O)/C=C/c1ccc(/C=C/C(=O)O)cc1 | – | – | · | ·
O=C(/C=C/c1ccccc1)/C=C/c1ccccc1 | 80 | · | 47 | 17701
CCCCNC(=O)CSc1nc(NCC2CCCO2)c2ccccc2n1 (configuration not stated) | – | · | · | ·
FC(F)(F)c1ccc(-c2nnc3cccc(Cl)n23)cc1 | – | · | · | ·
CN(C)c1ccc(-c2nnc3sc(-c4ccncc4)nn23)cc1 | – | – | · | ·
CN(C)c1ccc(-c2nnc3sc(-c4cccnc4)nn23)cc1 | 83 | – | – | –
Clc1ccc2c(c1)NNc1nncn1-2 | – | – | · | ·
O=C(O)CSc1nnc2n1-c1ccc(Cl)cc1NN2 | 47 | – | 39 | 6321
SMILES | GIV-Gai inh | HCMV UL50-53 inh | GIV Gai FP conf | GIV-Gai AS conf
COc1ccc(/C=C/c2cc(O)cc(O)c2)cc1O | · | – | · | ·
Oc1ccc2ncccc2c1C(Nc1ccccn1)c1ccco1 (configuration not stated) | 79 | – | – | 5282
Oc1ccccc1C(Nc1ccccn1)c1ccc2cccnc2c1O (configuration not stated) | · | – | · | ·
O=C(O)c1cc(NC(=O)c2ccc(NC(=O)c3ccco3)cc2)cc(C(=O)O)c1 | 79 | – | 64 | 22001
CC(=O)Nc1ccc(NC(=O)c2ccco2)cc1 | – | – | · | ·
CCOCCOC(=O)C1=C(C)NC2(O)c3ccccc3C(=O)C12O (configuration not stated) | – | · | · | ·
CCOC(=O)C1=C(C)OC2(O)c3ccccc3C(=O)C12O (configuration not stated) | 80 | – | – | –
N#CC1(NC(=O)CSc2nc3scc(-c4cccs4)c3c(=O)[nH]2)CCCCC1 | · | – | · | ·
O=C(O)c1cc(NS(=O)(=O)c2ccc3c(c2)CCCC3)cnc1N1CCC(N2CCCCC2)CC1 | 80 | – | 50 | –
CC(C)(C)c1ccc(S(=O)(=O)Nc2cnc(N3CCNCC3)c(C(=O)N3CCCC3)c2)cc1 | – | · | · | ·
O=C(O)c1cc(NS(=O)(=O)c2ccc(F)cc2)cnc1N1CCCC1 | 77 | – | 47 | 18634
O=C(O)c1cc(NS(=O)(=O)c2ccc3c(c2)CCCC3)ccc1N1CCN(C2CCCCC2)CC1 | – | – | · | ·
O=C(CN1C(=O)COc2ccccc21)NCc1ccco1 | – | – | · | ·
CN1CCC=C(Cc2n[nH]c(=O)c3ccccc23)C1 | – | · | · | ·
Cc1ccc(OC(C)C(=O)N(C)c2ccccc2)cc1 (configuration not stated) | – | – | · | ·
CCOc1cc(C=C2C(=O)NC(=O)NC2=O)cc(Cl)c1OC(=O)c1ccc(OC)cc1 | 75 | 49 | – | –
CCOc1cc(/C=C2\SC(=S)NC2=O)cc(Cl)c1OC(=O)c1ccc(OC)cc1 | – | · | · | ·
CCOC(=O)c1c(C)oc2c1c(O)c(N=O)c1ccccc12 | 42 | – | 48 | –
